In test [1] the target is cUSP47CD^C97S (Caenorhabditis elegans). The experiment in a line: ITC; ITC200, 25 °C; 500 µM monoubiquitin (1 mM for cUSP47CD^H178F and cUSP47CD^H178A) titrated into ~25–30 µM USP47 protein in the cell; 20 mM HEPES pH 7.4, 100 mM NaCl; one-site model, singlicate dataset.
Test [2] concerns the target cUSP47CD^C97SΔ236-248 (Caenorhabditis elegans). The test is described as above.

pKd: −log10 of the molar value.

The term stoichiometry N denotes the number of molecules, sites or subunits per partner or assembly. One may read the pKd as the Kd on a negative log10 scale, so that one unit is a factor of ten. High values mean a low Kd, low ones a high Kd. As for “ubiquitin (from UniProt P0CG48 1-76) (natural protein)”, in test [1], the stoichiometry N came out at 1. The pKd in test [2] was 5.57.
